These results are taken from DBAASP.

For test [1], the system named is Staphylococcus aureus ATCC 12600. The test is described as follows: ≥ marks a high value that may be exact or a test limit, other limits are often not marked, values filed in µg/mL are converted to µM.
Test [2] relates to Escherichia coli K-12. Described as above.

Values after ≈ are worked out from the molar mass of the structure shown.

`CC[C@H](C)[C@H](NC(=O)[C@H](CCCCN)NC(=O)[C@H](CCCCN)NC(=O)[C@H](CC(C)C)NC(=O)[C@H](C)NC(=O)CNC(=O)[C@@H](NC(=O)[C@H](C)NC(=O)[C@H](CCCCN)NC(=O)[C@@H]1CCCN1C(=O)[C@H](CC(C)C)NC(=O)[C@H](CC(C)C)NC(=O)[C@H](CCCCN)NC(=O)[C@H](Cc1ccccc1)NC(=O)[C@H](Cc1ccccc1)NC(=O)[C@@H](N)Cc1ccccc1)[C@@H](C)CC)C(=O)O` [FFFKLLPKAIGALKKI] gave an MIC in test [1] not below 64 µM.

Consider `CC[C@H](C)[C@H](NC(=O)[C@H](CC(C)C)NC(=O)[C@@H]1CCCN1C(=O)[C@H](CCCCN)NC(=O)[C@H](C)NC(=O)[C@@H](NC(=O)[C@@H](NC(=O)[C@@H](NC(=O)[C@@H](NC(=O)[C@H](CCCCN)NC(=O)[C@H](CCCCN)NC(=O)[C@H](CC(C)C)NC(=O)[C@@H](NC(=O)[C@H](CO)NC(=O)[C@@H](NC(=O)[C@H](CC(C)C)NC(=O)[C@H](CCCCN)NC(=O)[C@H](CCCCN)NC(=O)[C@@H](NC(=O)[C@H](Cc1ccccc1)NC(=O)[C@H](CO)NC(=O)[C@H](CCCCN)NC(=O)[C@H](Cc1c[nH]c2ccccc12)NC(=O)[C@@H](N)CCCCN)[C@@H](C)CC)[C@@H](C)O)C(C)C)C(C)C)C(C)C)[C@@H](C)O)[C@@H](C)O)C(=O)N[C@@H](CO)C(=O)N[C@@H](CO)C(=O)O` [KWKSFIKKLTSVLKKVVTTAKPLISS], for which the MIC is not below 32 µM in test [1] and 4 µM (≈ 11.7 µg/mL) in test [2].

In test [1], `CC(C)C[C@H](NC(=O)[C@@H](NC(=O)[C@H](CCCCN)NC(=O)[C@H](CCCCN)NC(=O)[C@@H](NC(=O)[C@H](CCCN=C(N)N)NC(=O)[C@H](CCCCN)NC(=O)[C@@H](NC(=O)[C@@H](N)CC(C)C)C(C)C)C(C)C)C(C)C)C(=O)O` [LVKRVKKVL] showed an MIC not below 128 µM.

In test [2], `CC(C)C[C@H](NC(=O)[C@H](CC(N)=O)NC(=O)[C@H](CCC(=O)O)NC(=O)[C@H](CC(N)=O)NC(=O)[C@H](CC(C)C)NC(=O)[C@@H](N)C(C)C)C(=O)N[C@@H](CCCN=C(N)N)C(=O)N[C@@H](CCCN=C(N)N)C(=O)O` [VLNENLRR] displayed an MIC not below 128 µM.

For `CSCC[C@H](NC(=O)[C@H](Cc1cnc[nH]1)NC(=O)[C@H](C)NC(=O)[C@H](CCSC)NC(=O)[C@@H](NC(=O)[C@H](CCCCN)NC(=O)[C@@H]1CCCN1C(=O)[C@H](CC(C)C)NC(=O)[C@@H](N)C(C)C)C(C)C)C(=O)N[C@@H](CCCCN)C(=O)O` [VLPKVMAHMK], the MIC is not below 128 µM in test [1] and not below 64 µM in test [2].

Usually MIC stands for the lowest concentration found to suppress growth. The low end stands for greater potency, the high end for weaker potency.
